Ki data for one compound are collected here from US11608353B2, “Amylase inhibitor compounds, methods of their use and compositions thereof” (THE UNIVERSITY OF BRITISH COLUMBIA, priority 2016, dated 2023).

Chains of the proteins cited; added tags and fusions are not shown. Residues count along the entry.
UniProt P04746, 16-511 limits assumed: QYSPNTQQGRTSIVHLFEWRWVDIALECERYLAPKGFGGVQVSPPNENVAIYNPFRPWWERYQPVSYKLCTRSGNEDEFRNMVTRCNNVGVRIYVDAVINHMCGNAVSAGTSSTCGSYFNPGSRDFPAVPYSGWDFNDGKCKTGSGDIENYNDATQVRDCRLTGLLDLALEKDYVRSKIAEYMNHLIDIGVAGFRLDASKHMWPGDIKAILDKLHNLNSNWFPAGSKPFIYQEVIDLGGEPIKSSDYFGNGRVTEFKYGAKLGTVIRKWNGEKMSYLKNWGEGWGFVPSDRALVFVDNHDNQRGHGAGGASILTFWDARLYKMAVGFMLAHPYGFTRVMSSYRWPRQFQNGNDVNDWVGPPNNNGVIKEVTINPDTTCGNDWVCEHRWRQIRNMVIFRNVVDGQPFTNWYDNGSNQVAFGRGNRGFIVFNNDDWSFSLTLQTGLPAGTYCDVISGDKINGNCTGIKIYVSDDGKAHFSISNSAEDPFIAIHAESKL

The target in the assay is human pancreatic α-amylase (HPA) (Homo sapiens, UniProt P04746). Description: Inhibition of wild-type human pancreatic α-amylase (HPA), kinetic KI determination with CNP-G3. The conditions noted are these: read-out: Ki of HPA, CNP-G3 substrate, pH 7.0, 30° C., competitive inhibition model. It is filed as biochemical.

For the compound `C[C@@H]1O[C@@H](O[C@@H]2CO[C@@H](Oc3c(O)cc(-c4oc5cc(O)cc(O)c5c(=O)c4O[C@@H]4O[C@@H](C)[C@H](O)[C@@H](O)[C@H]4O[C@@H]4O[C@H](COC(=O)/C=C/c5ccc(O)c(O)c5)[C@@H](O)[C@H](O)[C@H]4O)cc3O)[C@H](O)[C@H]2O)[C@H](O)[C@H](O)[C@H]1O`, the Ki came out at 9 nM.

As usually defined, the Ki is a measure of affinity in units of concentration, obtained from inhibition or displacement.
